Test results taken from PubChem BioAssay AID652106 (National Center for Advancing Translational Sciences (NCATS), 2013).
Only a part is listed here, and it is no random draw. Active and inactive are the calls of the source. The call rests on the fitted dose curve; in most records, active means well fitted activation curve with a large enough effect; inconclusive means small, poorly fitted or top-dose-only effect; inactive means no such curve, though single readings can be large or run the other way.

Assay: qHTS of alpha-syn Inhibitors; further: % of control where 0% means no effect; nearly all actives have a fitted effect of over 65% in size
Details: Yeast expressing alpha-synuclein, BacTiter-Glo, 24 h; at 46.1 µM (top of the series)
Excerpt: The goal of this project is to identify new chemical probes capable of reversing the toxicity associated with the Parkinson disease-related protein, alpha-synuclein. Compounds will be selected on their ability to restore growth in yeast cells expressing toxic levels of alpha-synuclein. These compounds will provide a complementary approach to deciphering the tangled mechanisms of toxicity and protection that we have uncovered through genome-wide genetic screens and are beginning to uncover in a large-scale proteomics analysis with mass spectroscopy. To this end, a miniaturized assay was developed to be screened against the Molecular Libraries Small Molecule Repository (MLSMR) to discover alpha-synuclein inhibitors. Please note that in the set-up this yeast-based assay compounds that inhibit as alpha-syn, have a read-out as activators. NIH Chemical Genomics Center [NCGC] NIH Molecular Libraries Probe Centers Network [MLPCN] […]
Dispense 2.5 microL yeast galactose medium per 1536-well plate, pin compound, dispense 2.5 microL alpha-synuclein expressing yeast in galactose medium at OD600=0.02 (pregrown in raffinose medium to mid-log phase) per well, incubate for 24 hr at 30 deg C, and cell growth will be measured using 5 microL of Bactiter/Glo reagent to entire plate and read using Luminescence Protocol in ViewLux.

Row | Structure (SMILES) | growth rescue (activation)
1 | CCC(=O)N(c1ccccc1)C1(COC)CCN(CCc2cccs2)CC1 | inactive: -0.876%
2 | CCC(=O)N(c1ccccc1)C1(COC)CCN(CCn2nnn(CC)c2=O)CC1 | inactive: -6.96%
